Source: patent US7074789B2, “Kinase inhibitors” (Amgen Inc., priority 1999, dated 2006)

Chains of the proteins cited; added tags and fusions are not shown. Residues count along the entry.
UniProt P06239, whole entry: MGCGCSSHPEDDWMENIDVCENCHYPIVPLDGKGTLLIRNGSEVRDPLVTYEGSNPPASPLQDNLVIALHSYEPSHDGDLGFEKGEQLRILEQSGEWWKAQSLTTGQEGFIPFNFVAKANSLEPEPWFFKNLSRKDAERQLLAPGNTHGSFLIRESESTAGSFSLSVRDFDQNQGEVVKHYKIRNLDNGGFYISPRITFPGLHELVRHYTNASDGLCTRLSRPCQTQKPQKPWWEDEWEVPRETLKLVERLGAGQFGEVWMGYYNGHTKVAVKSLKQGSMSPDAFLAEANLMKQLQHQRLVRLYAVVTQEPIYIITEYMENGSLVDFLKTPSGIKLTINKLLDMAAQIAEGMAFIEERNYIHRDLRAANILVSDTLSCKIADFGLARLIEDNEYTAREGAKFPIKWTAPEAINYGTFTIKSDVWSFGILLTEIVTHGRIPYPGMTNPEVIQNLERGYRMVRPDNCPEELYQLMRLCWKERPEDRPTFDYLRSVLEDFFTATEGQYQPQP
UniProt P35968, 20-1356 limits assumed: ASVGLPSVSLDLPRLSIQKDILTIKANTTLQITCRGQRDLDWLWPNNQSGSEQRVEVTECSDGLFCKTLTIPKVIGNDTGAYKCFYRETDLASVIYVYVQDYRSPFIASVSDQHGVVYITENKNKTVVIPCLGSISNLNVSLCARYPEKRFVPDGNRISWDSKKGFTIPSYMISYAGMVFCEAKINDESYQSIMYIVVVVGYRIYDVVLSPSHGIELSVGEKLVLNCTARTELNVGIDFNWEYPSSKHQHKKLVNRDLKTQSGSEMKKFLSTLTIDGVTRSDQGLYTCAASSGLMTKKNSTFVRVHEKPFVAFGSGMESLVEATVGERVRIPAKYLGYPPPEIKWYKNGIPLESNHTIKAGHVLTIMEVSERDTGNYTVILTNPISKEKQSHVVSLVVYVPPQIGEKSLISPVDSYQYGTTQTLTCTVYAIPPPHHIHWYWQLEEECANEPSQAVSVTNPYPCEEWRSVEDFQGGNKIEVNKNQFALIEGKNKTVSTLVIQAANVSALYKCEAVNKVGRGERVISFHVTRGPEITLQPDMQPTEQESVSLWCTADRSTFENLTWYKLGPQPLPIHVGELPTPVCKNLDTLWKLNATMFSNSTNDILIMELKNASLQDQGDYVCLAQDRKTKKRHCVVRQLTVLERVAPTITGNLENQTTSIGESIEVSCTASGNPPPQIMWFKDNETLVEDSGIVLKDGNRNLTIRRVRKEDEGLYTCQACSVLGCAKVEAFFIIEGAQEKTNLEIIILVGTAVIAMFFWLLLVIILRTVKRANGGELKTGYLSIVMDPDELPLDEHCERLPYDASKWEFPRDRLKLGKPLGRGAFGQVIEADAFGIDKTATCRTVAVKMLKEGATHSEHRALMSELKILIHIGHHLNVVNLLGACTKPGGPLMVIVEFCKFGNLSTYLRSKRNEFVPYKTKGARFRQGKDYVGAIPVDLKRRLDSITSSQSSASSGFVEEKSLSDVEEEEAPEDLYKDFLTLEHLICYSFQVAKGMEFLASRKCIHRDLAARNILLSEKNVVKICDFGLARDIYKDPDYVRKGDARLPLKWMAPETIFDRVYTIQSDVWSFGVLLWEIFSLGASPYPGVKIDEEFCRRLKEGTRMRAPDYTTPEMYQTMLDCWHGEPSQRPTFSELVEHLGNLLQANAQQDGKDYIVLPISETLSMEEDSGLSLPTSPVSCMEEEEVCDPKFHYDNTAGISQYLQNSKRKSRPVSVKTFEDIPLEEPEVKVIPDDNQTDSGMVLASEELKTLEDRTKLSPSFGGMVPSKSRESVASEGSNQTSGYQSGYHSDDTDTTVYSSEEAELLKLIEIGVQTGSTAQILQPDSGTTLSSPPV
UniProt Q9Y243, whole entry: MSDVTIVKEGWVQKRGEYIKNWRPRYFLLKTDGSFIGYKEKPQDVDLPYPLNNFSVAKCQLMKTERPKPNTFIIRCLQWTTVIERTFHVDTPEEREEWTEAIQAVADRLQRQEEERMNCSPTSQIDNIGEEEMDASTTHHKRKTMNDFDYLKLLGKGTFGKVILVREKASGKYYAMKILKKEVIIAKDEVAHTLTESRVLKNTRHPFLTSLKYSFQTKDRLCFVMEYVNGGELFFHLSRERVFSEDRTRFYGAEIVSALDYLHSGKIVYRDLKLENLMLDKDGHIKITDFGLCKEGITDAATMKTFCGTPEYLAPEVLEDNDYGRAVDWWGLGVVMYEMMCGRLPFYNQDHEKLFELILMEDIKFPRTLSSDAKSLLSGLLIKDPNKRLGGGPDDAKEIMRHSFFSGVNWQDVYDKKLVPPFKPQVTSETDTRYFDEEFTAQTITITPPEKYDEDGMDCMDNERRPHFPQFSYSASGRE
UniProt P08581, 25-1390 limits assumed: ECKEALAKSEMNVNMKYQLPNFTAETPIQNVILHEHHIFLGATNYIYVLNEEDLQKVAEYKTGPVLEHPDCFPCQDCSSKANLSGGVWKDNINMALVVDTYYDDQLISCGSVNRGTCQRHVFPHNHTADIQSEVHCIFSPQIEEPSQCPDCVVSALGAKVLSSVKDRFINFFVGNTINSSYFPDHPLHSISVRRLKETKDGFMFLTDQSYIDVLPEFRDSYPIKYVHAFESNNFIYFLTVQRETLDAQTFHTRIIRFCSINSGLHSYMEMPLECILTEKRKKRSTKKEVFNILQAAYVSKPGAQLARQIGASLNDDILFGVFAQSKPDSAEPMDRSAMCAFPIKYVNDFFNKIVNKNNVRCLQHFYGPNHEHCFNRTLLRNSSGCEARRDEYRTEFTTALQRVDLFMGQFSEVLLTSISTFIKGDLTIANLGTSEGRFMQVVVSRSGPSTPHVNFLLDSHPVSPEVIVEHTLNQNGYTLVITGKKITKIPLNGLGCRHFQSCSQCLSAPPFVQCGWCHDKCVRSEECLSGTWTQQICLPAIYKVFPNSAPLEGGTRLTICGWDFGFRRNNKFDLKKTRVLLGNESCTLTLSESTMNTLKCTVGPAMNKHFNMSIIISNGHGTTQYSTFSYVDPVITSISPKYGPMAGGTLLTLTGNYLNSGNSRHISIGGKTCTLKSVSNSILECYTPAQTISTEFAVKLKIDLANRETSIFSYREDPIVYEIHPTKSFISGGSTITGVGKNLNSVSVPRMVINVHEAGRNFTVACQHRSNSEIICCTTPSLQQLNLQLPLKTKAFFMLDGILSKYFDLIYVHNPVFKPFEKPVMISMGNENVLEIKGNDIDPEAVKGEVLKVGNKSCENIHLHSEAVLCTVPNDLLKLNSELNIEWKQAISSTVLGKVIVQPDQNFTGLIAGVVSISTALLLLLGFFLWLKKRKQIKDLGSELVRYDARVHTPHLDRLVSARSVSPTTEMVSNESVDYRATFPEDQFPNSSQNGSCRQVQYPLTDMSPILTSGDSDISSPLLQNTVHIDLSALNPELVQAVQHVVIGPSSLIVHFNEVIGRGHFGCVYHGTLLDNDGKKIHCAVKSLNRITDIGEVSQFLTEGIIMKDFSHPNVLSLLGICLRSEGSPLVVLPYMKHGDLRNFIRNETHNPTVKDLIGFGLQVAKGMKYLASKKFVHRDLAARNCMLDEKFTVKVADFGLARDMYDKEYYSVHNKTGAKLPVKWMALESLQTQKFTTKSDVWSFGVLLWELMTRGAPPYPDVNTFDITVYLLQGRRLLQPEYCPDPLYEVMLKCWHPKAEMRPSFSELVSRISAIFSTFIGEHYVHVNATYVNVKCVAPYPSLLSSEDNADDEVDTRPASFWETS
UniProt P09619, 33-1106 limits assumed: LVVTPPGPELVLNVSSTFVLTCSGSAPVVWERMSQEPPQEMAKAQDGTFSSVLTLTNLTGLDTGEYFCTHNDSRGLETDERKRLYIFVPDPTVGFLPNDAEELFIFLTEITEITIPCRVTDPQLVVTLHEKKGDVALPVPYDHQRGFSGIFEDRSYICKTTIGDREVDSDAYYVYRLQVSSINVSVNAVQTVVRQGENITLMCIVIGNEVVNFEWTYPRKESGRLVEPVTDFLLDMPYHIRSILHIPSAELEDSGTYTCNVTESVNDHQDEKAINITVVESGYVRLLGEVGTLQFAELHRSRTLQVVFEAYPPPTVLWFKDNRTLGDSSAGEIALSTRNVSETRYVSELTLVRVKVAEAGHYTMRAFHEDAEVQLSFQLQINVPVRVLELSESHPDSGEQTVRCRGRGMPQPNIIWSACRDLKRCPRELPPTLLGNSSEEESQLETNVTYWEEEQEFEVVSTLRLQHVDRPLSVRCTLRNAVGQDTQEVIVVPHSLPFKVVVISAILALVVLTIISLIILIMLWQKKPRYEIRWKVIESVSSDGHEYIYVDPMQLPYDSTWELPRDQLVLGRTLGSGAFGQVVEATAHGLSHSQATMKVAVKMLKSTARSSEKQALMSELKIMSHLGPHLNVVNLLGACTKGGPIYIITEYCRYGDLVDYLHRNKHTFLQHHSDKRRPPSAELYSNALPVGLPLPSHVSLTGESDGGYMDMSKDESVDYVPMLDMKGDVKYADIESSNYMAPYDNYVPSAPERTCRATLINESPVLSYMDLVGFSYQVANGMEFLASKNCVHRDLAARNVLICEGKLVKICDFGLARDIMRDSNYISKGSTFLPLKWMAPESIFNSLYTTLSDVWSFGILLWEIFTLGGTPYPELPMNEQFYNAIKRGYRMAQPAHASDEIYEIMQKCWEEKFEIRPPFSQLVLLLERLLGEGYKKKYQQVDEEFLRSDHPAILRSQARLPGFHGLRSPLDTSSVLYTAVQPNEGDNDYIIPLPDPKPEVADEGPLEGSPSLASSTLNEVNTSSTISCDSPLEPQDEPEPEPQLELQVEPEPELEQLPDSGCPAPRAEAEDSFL
UniProt P08069, 31-1367 limits assumed: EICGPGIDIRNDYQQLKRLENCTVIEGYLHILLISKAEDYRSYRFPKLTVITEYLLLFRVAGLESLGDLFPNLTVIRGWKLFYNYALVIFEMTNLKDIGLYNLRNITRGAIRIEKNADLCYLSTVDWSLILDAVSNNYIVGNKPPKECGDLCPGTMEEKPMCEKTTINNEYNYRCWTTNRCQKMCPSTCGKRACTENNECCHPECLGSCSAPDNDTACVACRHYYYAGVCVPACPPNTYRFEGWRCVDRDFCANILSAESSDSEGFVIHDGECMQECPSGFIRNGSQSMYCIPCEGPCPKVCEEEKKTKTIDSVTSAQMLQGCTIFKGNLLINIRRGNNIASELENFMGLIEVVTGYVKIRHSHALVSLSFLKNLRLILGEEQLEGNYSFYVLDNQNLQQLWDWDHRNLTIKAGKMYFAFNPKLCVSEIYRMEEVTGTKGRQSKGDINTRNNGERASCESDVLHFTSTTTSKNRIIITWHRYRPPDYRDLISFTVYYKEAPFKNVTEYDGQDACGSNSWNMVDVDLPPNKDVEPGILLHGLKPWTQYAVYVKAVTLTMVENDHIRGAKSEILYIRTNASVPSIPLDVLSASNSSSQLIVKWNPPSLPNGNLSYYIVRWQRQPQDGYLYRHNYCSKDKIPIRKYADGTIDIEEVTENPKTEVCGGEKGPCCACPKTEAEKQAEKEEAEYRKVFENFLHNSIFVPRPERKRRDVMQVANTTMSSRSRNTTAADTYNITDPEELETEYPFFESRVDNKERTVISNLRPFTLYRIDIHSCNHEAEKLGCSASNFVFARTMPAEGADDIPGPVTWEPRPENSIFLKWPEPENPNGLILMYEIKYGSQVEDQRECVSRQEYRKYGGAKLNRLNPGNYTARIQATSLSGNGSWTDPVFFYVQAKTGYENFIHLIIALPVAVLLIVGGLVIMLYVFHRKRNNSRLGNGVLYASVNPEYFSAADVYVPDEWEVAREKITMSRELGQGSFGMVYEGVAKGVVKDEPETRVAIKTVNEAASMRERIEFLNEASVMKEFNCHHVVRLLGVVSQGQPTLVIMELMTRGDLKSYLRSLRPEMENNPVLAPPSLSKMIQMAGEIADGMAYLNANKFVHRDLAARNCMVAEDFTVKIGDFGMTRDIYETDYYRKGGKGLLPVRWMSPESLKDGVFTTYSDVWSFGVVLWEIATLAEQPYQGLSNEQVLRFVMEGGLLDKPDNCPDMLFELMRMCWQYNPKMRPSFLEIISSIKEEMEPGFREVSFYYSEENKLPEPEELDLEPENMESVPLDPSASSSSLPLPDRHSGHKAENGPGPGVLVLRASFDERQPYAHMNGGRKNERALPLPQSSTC

Legend:
Lck = Lck (Homo sapiens, UniProt P06239); assay: Kinase inhibition assay (33P transfer), Lck; assay type: biochemical
Itk = Itk (Homo sapiens, UniProt Q08881); assay: Kinase inhibition assay (33P transfer), Itk; assay type: biochemical
Zap-70 = Zap-70 (Homo sapiens, UniProt P43403); assay: Kinase inhibition assay (33P transfer), Zap-70; assay type: biochemical
EGFR = EGFR (Homo sapiens, UniProt P00533); assay: Kinase inhibition assay (33P transfer), EGFR; assay type: biochemical
Kdr = Kdr (Homo sapiens, UniProt P35968); assay: Kinase inhibition assay (33P transfer), Kdr; assay type: biochemical
AKT = AKT (Homo sapiens, UniProt Q9Y243); assay: Kinase inhibition assay (33P transfer), AKT
c-Met = c-Met (Homo sapiens, UniProt P08581); assay: Kinase inhibition assay (33P transfer), c-Met; assay type: biochemical
EPHB4 = EPHB4 (Homo sapiens, UniProt P54760); assay: Kinase inhibition assay (33P transfer), EPHB4; assay type: biochemical
PDGFRB = PDGFRB (Homo sapiens, UniProt P09619); assay: Kinase inhibition assay (33P transfer), PDGFRB; assay type: biochemical
Ret-1 = Ret-1 (Homo sapiens, UniProt P07949); assay: Kinase inhibition assay (33P transfer), Ret; assay type: biochemical; conditions: Table 6, Ret-1 kinase inhibition class
IGFR-1 [1] = biological target: T1, IGFR-1 (Homo sapiens, UniProt P08069); assay: Kinase inhibition assay (33P transfer), IGFR-1; assay type: biochemical
Lyn = Lyn (Homo sapiens, UniProt P07948); assay: Kinase inhibition assay (33P transfer), Lyn; conditions: Table 6, Lyn-1 kinase inhibition class
FGFR1 = FGFR1 (Homo sapiens, UniProt P11362); assay: Kinase inhibition assay (33P transfer), FGFR1; assay type: biochemical
Flt-1 = Flt-1 (Homo sapiens, UniProt P17948); assay: Kinase inhibition assay (33P transfer), Flt-1; assay type: biochemical
Fyn = Fyn (Homo sapiens, UniProt P06241); assay: Kinase inhibition assay (33P transfer), Fyn; assay type: biochemical
Hck-1 = Hck-1 (Homo sapiens, UniProt P08631); assay: Kinase inhibition assay (33P transfer), Hck; assay type: biochemical; conditions: Table 6, Hck-1 kinase inhibition class
Tek = Tek (Homo sapiens, UniProt Q02763); assay: Kinase inhibition assay (33P transfer), Tek
Src = Src (Homo sapiens, UniProt P12931); assay: Kinase inhibition assay (33P transfer), Src; conditions: Table 6, Src-1 kinase inhibition class
IGFR-1 [2] = biological target: T1, IGFR-1; assay: Kinase inhibition assay, IGFR-1 (Table 2); assay type: biochemical; conditions: Table 2, kinase inhibition class
ErbB2 = ErbB2 (Homo sapiens, UniProt P04626); assay: Kinase inhibition assay (33P transfer), ErbB2
ErbB4 = ErbB4 (Homo sapiens, UniProt Q15303); assay: Kinase inhibition assay (33P transfer), ErbB4; assay type: biochemical
[3] = Table 2, kinase inhibition class

`CCN(CC)CCCNc1cc(-c2ncnc(Nc3cc(OC)c(OC)c(OC)c3)n2)ccn1` was tested, and the Lck-1 (Lck; Table 3) was “E (E>4.5 ug/mL)”, the Itk-1 (Itk; Table 3) was “E (E>4.5 ug/mL)” and the Zap-1 (Zap-70; Table 3) was “E (E>4.5 ug/mL)”. The EGFR-1 (EGFR; [3]) was “E (E>4.5 ug/mL)”, the KDR-1 (Kdr; Table 3) was “E (E>4.5 ug/mL)” and the AKT3-1 (AKT; [3]) was “E (E>4.5 ug/mL)”. For the same molecule, the Met-1 (c-Met; [3]) was “E (E>4.5 ug/mL)”.

For `COc1cc(Nc2ncnc(Nc3ccc(N4CCCCC4)cc3)n2)cc(OC)c1OC`, the EPHB4-1 (EPHB4) was “E (E>4.5 ug/mL)”, the Lck-1 (Lck; Table 3) was “C (C>2.4 and <3.5 ug/mL)” and the PDGFRB-1 (PDGFRB) was “E (E>4.5 ug/mL)”. For the same molecule, the Ret-1 (Ret-1) was “E (E>4.5 ug/mL)”, the Itk-1 (Itk; Table 3) was “E (E>4.5 ug/mL)” and the IGFR-1 (IGFR-1 [1]; [3]) was “E (E>4.5 ug/mL)”. The Zap-1 (Zap-70; Table 3) was “C (C>2.4 and <3.5 ug/mL)”, the Lyn-1 (Lyn) was “B (B>0.4 and <2.4 ug/mL)” and the FGFR1-1 (FGFR1) was “E (E>4.5 ug/mL)”. The Flt-1 (Flt-1) was “D (D>3.5 and <4.5 ug/mL)”, the Fyn-1 (Fyn) was “E (E>4.5 ug/mL)” and the Hck-1 (Hck-1) was “E (E>4.5 ug/mL)”. The EGFR-1 (EGFR; [3]) was “B (B>0.4 and <2.4 ug/mL)”, the Tek-1 (Tek) was “E (E>4.5 ug/mL)” and the Src-1 (Src) was “E (E>4.5 ug/mL)”. The KDR-1 (Kdr; Table 3) was “A (A<0.4 ug/mL)”, the AKT3-1 (AKT; [3]) was “B (B>0.4 and <2.4 ug/mL)” and the Met-1 (c-Met; [3]) was “B (B>0.4 and <2.4 ug/mL)”.

For `Fc1ccc(Nc2ncnc(Cl)n2)cc1Cl`, the Lck-1 (Lck) was “E (E>4.5 ug/mL)”, the PDGFRB-1 (PDGFRB) was “E (E>4.5 ug/mL)” and the Itk-1 (Itk) was “E (E>4.5 ug/mL)”. The Zap-1 (Zap-70) was “E (E>4.5 ug/mL)”, the EGFR-1 (EGFR; [3]) was “E (E>4.5 ug/mL)” and the KDR-1 (Kdr) was “E (E>4.5 ug/mL)”. The AKT3-1 (AKT; [3]) was “E (E>4.5 ug/mL)”, the IGFR-1 (IGFR-1 [2]) was “E (E>4.5 ug/mL)” and the ErbB2-2 (ErbB2) was “E (E>4.5 ug/mL)”. For the same molecule, the Met-1 (c-Met; [3]) was “E (E>4.5 ug/mL)”.

In the case of `COc1ccc(Nc2ncnc(-n3c(N)nc4ccccc43)n2)cc1OCCN1CCOCC1`, the Lck-1 (Lck) is reported as “B (B>0.4 and <2.4 ug/mL)”, the PDGFRB-1 (PDGFRB) is reported as “B (B>0.4 and <2.4 ug/mL)” and the Itk-1 (Itk) is reported as “D (D>3.5 and <4.5 ug/mL)”. For the same molecule, the Zap-1 (Zap-70) was “E (E>4.5 ug/mL)”, the EGFR-1 (EGFR; [3]) was “E (E>4.5 ug/mL)” and the Tek-1 (Tek) was “B (B>0.4 and <2.4 ug/mL)”. For the same molecule, the AKT3-1 (AKT; [3]) was “E (E>4.5 ug/mL)”, the IGFR-1 (IGFR-1 [2]) was “B (B>0.4 and <2.4 ug/mL)” and the Met-1 (c-Met; [3]) was “E (E>4.5 ug/mL)”.

For `COc1cc(Nc2ncnc(-c3cccnc3NCc3ccccc3)n2)cc(OC)c1OC`, the Lck-1 (Lck) was “B (B>0.4 and <2.4 ug/mL)”, the PDGFRB-1 (PDGFRB) was “A (A<0.4 ug/mL)” and the Ret-1 (Ret-1) was “A (A<0.4 ug/mL)”. The Itk-1 (Itk) was “E (E>4.5 ug/mL)”, the Zap-1 (Zap-70) was “E (E>4.5 ug/mL)” and the Lyn-1 (Lyn) was “B (B>0.4 and <2.4 ug/mL)”. For the same molecule, the FGFR1-1 (FGFR1) was “A (A<0.4 ug/mL)”, the Flt-1 (Flt-1) was “A (A<0.4 ug/mL)” and the Fyn-1 (Fyn) was “E (E>4.5 ug/mL)”. For the same molecule, the Hck-1 (Hck-1) was “E (E>4.5 ug/mL)”, the EGFR-1 (EGFR; [3]) was “E (E>4.5 ug/mL)” and the ErbB4-1 (ErbB4) was “E (E>4.5 ug/mL)”. For the same molecule, the Tek-1 (Tek) was “E (E>4.5 ug/mL)”, the Src-1 (Src) was “D (D>3.5 and <4.5 ug/mL)” and the KDR-1 (Kdr) was “A (A<0.4 ug/mL)”. For the same molecule, the AKT3-1 (AKT; [3]) was “E (E>4.5 ug/mL)”, the IGFR-1 (IGFR-1 [2]) was “E (E>4.5 ug/mL)” and the ErbB2-2 (ErbB2) was “E (E>4.5 ug/mL)”. The Met-1 (c-Met; [3]) was “E (E>4.5 ug/mL)”.

With `CN(c1cccc(Cl)c1)c1ncnc(Nc2ccc3c(cnn3Cc3ccccc3)c2)n1` the Lck-1 (Lck; Table 3, class symbols) was “E (E>4.5 ug/mL)”, the PDGFRB-1 (PDGFRB) was “C (C>2.4 and <3.5 ug/mL)” and the Itk-1 (Itk; Table 3, class symbols) was “E (E>4.5 ug/mL)”. For the same molecule, the IGFR-1 (IGFR-1 [1]; Table 2, class symbols A-E) was “E (E>4.5 ug/mL)”, the Zap-1 (Zap-70; Table 3, class symbols) was “E (E>4.5 ug/mL)” and the EGFR-1 (EGFR; Table 2, class symbols A-E) was “B (B>0.4 and <2.4 ug/mL)”. The KDR-1 (Kdr; Table 3, class symbols) was “E (E>4.5 ug/mL)”, the AKT3-1 (AKT; Table 2, class symbols A-E) was “E (E>4.5 ug/mL)” and the ErbB2-2 (ErbB2) was “D (D>3.5 and <4.5 ug/mL)”. For the same molecule, the Met-1 (c-Met; Table 2, class symbols A-E) was “E (E>4.5 ug/mL)”.

For `COc1cc(Nc2ncnc(NC(C)c3ccccc3)n2)cc(OC)c1OC` (stereo not drawn), the Itk-1 (Itk) was “E (E>4.5 ug/mL)”, the Zap-1 (Zap-70) was “E (E>4.5 ug/mL)” and the KDR-1 (Kdr) was “E (E>4.5 ug/mL)”. For the same molecule, the AKT3-1 (AKT; [3]) was “E (E>4.5 ug/mL)” and the Met-1 (c-Met; [3]) was “E (E>4.5 ug/mL)”.

Like-named read-outs stand apart in the source and are kept apart here.
